Yeast mating assay B: variants of the scFv Ab-14

Values reported by Li et al. 2023, doi:10.1038/s41467-023-39022-2 (FLAb copy).

Antigen: PDVDLGDISGINAS, a 14-residue peptide of the SARS-CoV-2 spike HR2 region.

Each scFv is VH, a 15-residue (Gly4Ser)3 linker, VL, as in the parent Ab-14, and differs from it in the CDRs of the light chain only.
VH: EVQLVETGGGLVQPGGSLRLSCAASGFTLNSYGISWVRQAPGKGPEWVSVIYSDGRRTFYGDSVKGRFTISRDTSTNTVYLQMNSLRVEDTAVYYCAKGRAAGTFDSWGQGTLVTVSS
VL: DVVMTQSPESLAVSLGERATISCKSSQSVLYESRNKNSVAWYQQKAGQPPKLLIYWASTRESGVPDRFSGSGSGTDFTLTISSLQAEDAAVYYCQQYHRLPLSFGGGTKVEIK

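This is the validation round: designs drawn from the data on random variants, tested in the same kind of assay. Several design methods are mixed in this list. In AlphaSeq, yeast of one mating type display the scFv and yeast of the other type display the target. Binding brings cells together so that they mate, and sequencing counts the barcode pairs among the diploids. Read counts were normalised to the haploid input and turned into Kd by a linear fit to BCL2-family pairs of known affinity, for each replicate. Each pool was mated in six replicate cultures.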

Each variant's VL is given in full.
Kd is apparent (estimated from mating counts) and averaged on the log scale over replicates with a signal. Smaller is tighter.
Entries are sorted by rising average.
Of ten entries with the parent sequence, four were seen in most replicates (averages 2.2 nM to 240 nM), three in one and three in none, so single entries are noisy.
Three control strains display no target. For all light chain designs, 4% of the pairings with them gave a signal, with a median of 430 nM and one signal in twenty below 38 nM, so weak values seen in few replicates may be background.
The range of this assay differs from that of the first round, and the authors advise against merging the two.
In the paper, a design with two or fewer of six values counts as a poor binder.

Kd	seen in	VL
720 pM	6/6	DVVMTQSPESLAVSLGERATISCKFSQSVLYESRMKNSVAWYQQKAGQPPKLLIYNASQRESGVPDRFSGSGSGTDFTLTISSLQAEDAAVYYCQQYHRLPLSFGGGTKVEIK
1.4 nM	6/6	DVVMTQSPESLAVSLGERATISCTISQSAHMESHNKDNVAWYQQKAGQPPKLLIYDLNTRGSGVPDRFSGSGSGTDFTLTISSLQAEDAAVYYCQQYDRLPLSFGGGTKVEIK
1.4 nM	6/6	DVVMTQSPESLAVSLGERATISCKSSQSGAYESRNKNSVAWYQQKAGQPPKLLIYQASTRECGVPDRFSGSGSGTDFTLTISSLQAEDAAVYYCQEYFRLPLSFGGGTKVEIK
1.7 nM	6/6	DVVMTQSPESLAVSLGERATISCKQSQSVLYESRNKNSVAWYQQKAGQPPKLLIYDASTRSSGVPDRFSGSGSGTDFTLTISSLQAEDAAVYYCQQYHRLPLSFGGGTKVEIK
2.7 nM	6/6	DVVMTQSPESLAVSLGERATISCHLSFSVLYESRNKNSVAWYQQKAGQPPKLLIYNASTRESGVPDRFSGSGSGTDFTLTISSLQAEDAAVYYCQQYHRLPLNFGGGTKVEIK
2.9 nM	6/6	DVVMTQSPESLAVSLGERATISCQIYQAMHTLSQKKNNVAWYQQKAGQPPKLLIYDVNERGSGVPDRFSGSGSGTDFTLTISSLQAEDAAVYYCQQYFRLPLSFGGGTKVEIK
4.6 nM	6/6	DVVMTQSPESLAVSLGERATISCKISQTQEMELKNRNSVAWYQQKAGQPPKLLIYELVTRMSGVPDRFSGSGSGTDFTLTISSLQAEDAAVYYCQQYNRLPLSFGGGTKVEIK
5.8 nM	6/6	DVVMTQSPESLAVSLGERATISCKISMSYRYEMQEKNSIAWYQQKAGQPPKLLIYEMTTREEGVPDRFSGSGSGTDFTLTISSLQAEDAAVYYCQSYHRLPLSFGGGTKVEIK
11 nM	6/6	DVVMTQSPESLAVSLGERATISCKLLWSVLYESNNVNSVAWYQQKAGQPPKLLIYHASTREDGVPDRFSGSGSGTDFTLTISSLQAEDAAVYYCQQYHRLPLSFGGGTKVEIK
13 nM	1/6	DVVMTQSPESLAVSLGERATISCIVSQLMLWGYHAKNSIAWYQQKAGQPPKLLIYEAQMRLNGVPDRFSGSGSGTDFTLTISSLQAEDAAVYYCQQYDRLPLIFGGGTKVEIK
32 nM	6/6	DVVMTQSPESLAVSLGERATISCDFEQWTFSQNRDDNSIAWYQQKAGQPPKLLIYHADEVVRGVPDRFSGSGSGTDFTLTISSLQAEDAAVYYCQQYDRLPLTFGGGTKVEIK
37 nM	6/6	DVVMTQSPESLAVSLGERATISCKLDASMYVGTEAKRAIAWYQQKAGQPPKLLIYQDEMRVHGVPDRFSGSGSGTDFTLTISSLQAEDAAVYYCQQYDRLPLMFGGGTKVEIK
210 nM	4/6	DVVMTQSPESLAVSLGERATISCQLAESVHMESRNKNSVAWYQQKAGQPPKLLIYDNSTRESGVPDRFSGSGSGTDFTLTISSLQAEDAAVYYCQHYDRLPLSFGGGTKVEIK
260 nM	3/6	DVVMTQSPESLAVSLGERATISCMFSQMTGLGMKAKNSVAWYQQKAGQPPKLLIYQASMRFNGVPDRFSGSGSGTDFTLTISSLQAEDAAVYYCQQYHRLPLIFGGGTKVEIK
280 nM	6/6	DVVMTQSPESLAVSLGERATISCQFARAMYHGGNDNQSIAWYQQKAGQPPKLLIYDAMTYIKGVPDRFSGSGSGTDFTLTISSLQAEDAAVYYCQQYSRLPLFFGGGTKVEIK
310 nM	2/6	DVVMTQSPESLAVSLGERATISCQMKMSLLQGILIKDSIAWYQQKAGQPPKLLIYSSDLREMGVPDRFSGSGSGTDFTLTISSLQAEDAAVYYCQQYEHLPLIFGGGTKVEIK
900 nM	2/6	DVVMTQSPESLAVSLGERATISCKSSQSVLYESRNKNSVAWYQQKAGQPPKLLIYWASQRESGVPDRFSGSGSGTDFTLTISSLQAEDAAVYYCQQYHDLPLSFGGGTKVEIK